The values that follow come from PMC8286823, “Identifying SARS-CoV-2 antiviral compounds by screening for small molecule inhibitors of nsp15 endoribonuclease” (Biochemical Journal, 2021).

This assay has as its target SARS-CoV-2 nsp15 endoribonuclease (Severe acute respiratory syndrome coronavirus 2, UniProt P0DTD1). The conditions noted are these: for Z-score [High]: high compound concentration 3.75 µM; for Z-score [Low]: low compound concentration 1.25 µM.

Take `CN1C[C@H](C(=O)N[C@]2(C)O[C@@]3(O)[C@@H]4CCCN4C(=O)[C@H](Cc4ccccc4)N3C2=O)C=C2c3cccc4[nH]cc(c34)C[C@H]21` [Ergotamine]: the “Z-score [High]” value was 0.06 and the “Z-score [Low]” value was 0.03.

For `O=C1c2cc([N+](=O)[O-])ccc2-n2c1nc1ccccc1c2=O` [GNF-PF-3777], for the setting “lowest of low (1.25 µM) and high (3.75 µM) compound concentration”, the “Lowest Z-score” value worked out at 3.95. As to `CCCCC[C@H](O)CC(=O)CCc1ccc(O)c(OC)c1` [Gingerol], the “Z-score [High]” value is recorded as 0.67. On the same count and under the same terms, the same measure for `O=C(/C=C/C=C/c1ccc2c(c1)OCO2)N1CCCCC1` [Piperine]: 0.05. `O=C(/C=C/c1ccc(O)c(O)c1)O[C@H](Cc1ccc(O)c(O)c1)C(=O)O` [Rosmarinic acid]: the “Z-score [High]” value is listed as 1.19 and the “Z-score [Low]” value stood at 0.08. As for `C[C@H]1CC[C@@]2(OC1)O[C@H]1C[C@H]3[C@@H]4CC[C@@H]5C[C@@H](O)CC[C@]5(C)[C@H]4CC[C@]3(C)[C@H]1[C@@H]2C` [Sarsasapogenin], the “Z-score [High]” value is reported as 0.19 and the “Z-score [Low]” value is -0.79.

For `C[C@H]1[C@H](C)CC[C@]2(C(=O)O)CC[C@]3(C)C(=CC[C@@H]4[C@@]5(C)CCC(=O)C(C)(C)[C@@H]5CC[C@]43C)[C@H]12` [Ursonic acid], the “Z-score [High]” value was found to be 0.30 and the “Z-score [Low]” value is listed as 0.56.
